Source: US9688712B2, “Manufacturing method for polyphenol composition” (KAO CORPORATION, priority 2010, dated 2017)

Assay: Measurement of log P value of the hardly water-soluble polyphenols (flask shaking method, JIS Z7260-107)
Protocol: The log P value is a common logarithm of the partition coefficient between 1-octanol, and water and an index indicative of a hydrophobicity of an organic compound. Larger positive log P value indicates larger hydrophobicity. […] The details are described in Examples.
[Measurement of Log P Value of the Hardly Water-Soluble Polyphenols]
First, 1-octanol and distilled water were shaken for 24 hours at 25° C. to equilibrate them. Then, 10 mg of polyphenol was weighed into a glass vial with a cap, into which each of 4 mL of the equilibrated 1-octanol and water was added. The vial was shaken for 4 days at 25° C. […] Log P value is a common logarithm of the partition coefficient between the two phases.

## C[C@@H]1O[C@@H](OC[C@H]2O[C@@H](Oc3c(-c4ccc(O)c(O)c4)oc4cc(O)cc(O)c4c3=O)[C@H](O)[C@@H](O)[C@@H]2O)[C@H](O)[C@H](O)[C@H]1O [rutin]
  logP at 4 days: -0.33
